Laboratory results as given in patent US9586965B2, “Pyrrolo[2,3-d]pyrimidine compounds as inhibitors of protein kinases” (ACEA BIOSCIENCES INC., priority 2012, dated 2017).

Columns and labels:
[1] = system: HCC827 (L858R) human lung adenocarcinoma xenograft; conditions: in vivo
Description: (§1) Each mouse was inoculated subcutaneously at the right flank with H1975 cells (5×10^6), HCC827 (5×10^6) and A431 (5×10^6) respectively in 0.2 ml of medium for tumor development. The treatments were started when the tumor size reached approximately 200-250 mm^3. The testing articles were administrated to the mice according to the predetermined regimen as shown in the experimental design table.
(§2) All the procedures related to animal handling, care and the treatment in this study were performed according to the guidelines approved by the Institutional Animal Care and Use Committee (IACUC) following the guidance of the Association for Assessment and Accreditation of Laboratory Animal Care (AAALAC). At the time of routine monitoring, the animals were checked for any effects of tumor growth and treatments on normal behavior such as mobility, food and water consumption (by observation), body weight gain/loss (body weights were measured twice weekly), eye/hair matting and any other abnormal effect. Death and observed clinical signs were recorded on the basis of the numbers of animals within each subset.
(§3) The major endpoint was to see if the tumor growth can be delayed or mice can be cured. […] Tumor weight was measured at the study termination. The T/C value (in percent) was calculated where T and C were the mean tumor weights of the treated and control groups, respectively.

[2] = system: NCI-H1975 (L858R/T790M) human non-small cell lung adenocarcinoma xenograft; conditions: in vivo
Description: as §1, §2, §3

COc1cc2ncnc(Nc3ccc(F)c(Cl)c3)c2cc1OCCCN1CCOCC1 [Gefitinib] was tested, and the “Mouse Weight (g) at day 25(14)” value [1] was 23.70 ± 0.43 g and the “Mouse Weight (g) at day 23(14)” value [2] was 20.43 ± 0.71 g.
